Measured affinities in a library of Ab-14 light chain variants

Antigen: PDVDLGDISGINAS, a 14-residue peptide of the SARS-CoV-2 spike HR2 region.

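The starting antibody came from a phage panning campaign against this peptide. Library AAYL50 holds single substitutions and randomly drawn double and triple substitutions in the CDRs. AlphaSeq pools MATa yeast showing the antibodies with MATalpha yeast showing the peptide. Mating (16 h, 30 °C) was followed by selection of diploids and sequencing of their barcodes. Scores were corrected for input abundance and mapped to Kd with protein pairs of known affinity run in the same pool. The assay was run in three technical replicates.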

Parent scFv Ab-14: VH joined to VL by a (GGGGS)3 linker. Changes lie in the light chain CDRs alone.
VH: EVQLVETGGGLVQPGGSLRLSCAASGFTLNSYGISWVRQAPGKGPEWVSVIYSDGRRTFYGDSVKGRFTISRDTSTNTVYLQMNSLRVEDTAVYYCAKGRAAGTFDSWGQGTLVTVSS
VL: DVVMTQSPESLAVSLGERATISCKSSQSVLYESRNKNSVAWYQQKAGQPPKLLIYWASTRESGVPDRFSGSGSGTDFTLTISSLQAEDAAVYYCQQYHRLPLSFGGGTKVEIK

The parent's light chain CDRs are KSSQSVLYESRNKNSVA, WASTRES, QQYHRLPLS; each variant's own CDRs replace them letter for letter.
Every variant below is changed at L30 of the VL (sequential numbering).
The Kd shown is the geometric mean over detected replicates; a lower Kd is a better binder.
"no signal" means that the variant was in the library but no mating with the target was seen in any replicate; the authors take this as a sign of poor binding, and no number exists.
Background: pairings of library AAYL50 with three empty control strains gave a value in 18% of cases (median 15 µM, 5th percentile 970 nM). Values in that range, when seen in few replicates, are hard to tell from nonspecific mating. Also given: how often the same scFv was detected with the empty control strains.
For reference, the parent read 4.4 nM as the reference entry and 48 nM as a member of this library.

* KSSQSVRYESRNKNSVA / WASTREW / QQYRRLPLS = 34 nM (3 of 3 replicates; controls 2 of 9)
* WSSQSVCCESRNKNSVA / WASTRES / QQYHRLPLS = 980 nM (3 of 3 replicates; controls 2 of 9)
* TSSQSVRYESRNKNSVA / WASTRES / QQYHRLPLS = 240 nM (3 of 3 replicates; controls 4 of 9)
* KSSQSVEYVSRNKNSVA / WASTRES / QQQHRLPLS = no signal (0 of 3 replicates; controls 0 of 9)
* KSSQSPIYESRNKNSVA / WASTRES / QQYHRLVLS = 2.1 nM (3 of 3 replicates; controls 0 of 9)
* KSSQSVWYESRNKNSVA / WASTRPS / QQYHRSPLS = 1.8 µM (1 of 3 replicates; controls 1 of 9)

Reference: Engelhart et al. 2022, doi:10.1038/s41597-022-01779-4. File: FLAb, binding data.